Data as given in PMC3981819, “Signaling Properties and Pharmacological Analysis of Two Sulfakinin Receptors from the Red Flour Beetle, Tribolium castaneum” (PLoS ONE, 2014).

Columns and labels:
[1] = target: Tribolium castaneum sulfakinin receptor 2 (T. castaneum)
[2] = target: Tribolium castaneum sulfakinin receptor 1 (T. castaneum)

nonsulfated (ns) drosulfakinin 2 (peptide)
aequorin bioluminescence in CHO-WTA11 cells transfected with the receptor, peptide at 1 μM, % of the response to 1 μM sTrica-SK(5–13) [1]: 57.4% | aequorin bioluminescence in CHO-WTA11 cells transfected with the receptor, peptide at 1 μM, % of the response to 1 μM sTrica-SK(5–13) [2]: 40.1%
